System: C. tepidium CTR107 variants, FAM-binding aptamers from phage display library (7 unique)
Experiment: Fluorescence-binding assay, Kd by nonlinear regression fit to the Hill equation

Substance: 5(6)-Carboxyfluorescein [FAM]
- increase in affinity compared to wildtype CTR107: 50-700 fold
